Results published in PubChem BioAssay (NCI).
Some results for these compounds are left out of this collection, so the calls shown say nothing about other tests.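 Growth conditions: 96-well plates. Treatment: test compound, 48 hours, 5 concentrations. Analysis: linear interpolation between bracketing concentrations; unreached endpoints set to highest concentration. GI50 marks 50% less growth.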

Assays:
Assay in all cases: NCI-60 cell line screen, 48 h; in the data active = GI50 below about 0.43 µM; inactive = the rest
786-0 renal = tested on: 786-0 renal
A498 renal = tested on: A498 renal
A549 NSCLC = tested on: A549 NSCLC
ACHN renal = tested on: ACHN renal
BT-549 breast = tested on: BT-549 breast
CCRF-CEM leukemia = tested on: CCRF-CEM leukemia
COLO 205 colon = tested on: COLO 205 colon
DU-145 prostate = tested on: DU-145 prostate
EKVX NSCLC = tested on: EKVX NSCLC
HCC-2998 colon = tested on: HCC-2998 colon
HCT-116 colon = tested on: HCT-116 colon
HCT-15 colon = tested on: HCT-15 colon
HL-60(TB) leukemia = tested on: HL-60(TB) leukemia
HOP-62 NSCLC = tested on: HOP-62 NSCLC
HS 578T breast = tested on: HS 578T breast
HT29 colon = tested on: HT29 colon
IGROV1 ovarian = tested on: IGROV1 ovarian
K-562 leukemia = tested on: K-562 leukemia
KM12 colon = tested on: KM12 colon
LOX IMVI melanoma = tested on: LOX IMVI melanoma
M14 melanoma = tested on: M14 melanoma
MALME-3M melanoma = tested on: MALME-3M melanoma
MCF7 breast = tested on: MCF7 breast
MDA-MB-435 = tested on: MDA-MB-435
MDA-N = tested on: MDA-N
MOLT-4 leukemia = tested on: MOLT-4 leukemia
NCI-H226 lung = tested on: NCI-H226 lung
NCI-H23 lung = tested on: NCI-H23 lung
NCI-H322M lung = tested on: NCI-H322M lung
NCI-H460 lung = tested on: NCI-H460 lung
NCI-H522 lung = tested on: NCI-H522 lung
NCI/ADR-RES ovarian = tested on: NCI/ADR-RES ovarian
OVCAR-3 ovarian = tested on: OVCAR-3 ovarian
OVCAR-4 ovarian = tested on: OVCAR-4 ovarian
OVCAR-5 ovarian = tested on: OVCAR-5 ovarian
OVCAR-8 ovarian = tested on: OVCAR-8 ovarian
PC-3 prostate = tested on: PC-3 prostate
RPMI-8226 leukemia = tested on: RPMI-8226 leukemia
RXF 393 renal = tested on: RXF 393 renal
SF-268 CNS = tested on: SF-268 CNS
SF-295 CNS = tested on: SF-295 CNS
SK-MEL-2 melanoma = tested on: SK-MEL-2 melanoma
SK-MEL-28 melanoma = tested on: SK-MEL-28 melanoma
SK-MEL-5 melanoma = tested on: SK-MEL-5 melanoma
SK-OV-3 ovarian = tested on: SK-OV-3 ovarian
SN12C renal = tested on: SN12C renal
SNB-19 CNS = tested on: SNB-19 CNS
SNB-75 CNS = tested on: SNB-75 CNS
SR leukemia = tested on: SR leukemia
SW-620 colon = tested on: SW-620 colon
T-47D breast = tested on: T-47D breast
TK-10 renal = tested on: TK-10 renal
U251 CNS = tested on: U251 CNS
UACC-257 melanoma = tested on: UACC-257 melanoma
UACC-62 melanoma = tested on: UACC-62 melanoma
UO-31 renal = tested on: UO-31 renal

Measured: GI50

CC#CC(O)(C(=O)OC1CCN(C)CC1)c1ccccn1 (stereo unspecified)
inactive: 786-0 renal 51.8 µM | A498 renal > 100 µM | A549 NSCLC > 100 µM | ACHN renal > 100 µM | BT-549 breast > 100 µM | CCRF-CEM leukemia 25.7 µM | COLO 205 colon > 100 µM | DU-145 prostate > 100 µM | EKVX NSCLC 11.8 µM | HCC-2998 colon > 100 µM | HCT-116 colon 74.3 µM | HCT-15 colon 74.3 µM | HL-60(TB) leukemia > 100 µM | HOP-62 NSCLC 85.7 µM | HS 578T breast 32.8 µM | HT29 colon 77.5 µM | IGROV1 ovarian > 100 µM | K-562 leukemia 23.4 µM | KM12 colon > 100 µM | LOX IMVI melanoma 20.9 µM | M14 melanoma > 100 µM | MALME-3M melanoma > 100 µM | MCF7 breast 54.6 µM | MDA-MB-435 = 21.3 µM | MDA-N 33.6 µM | MOLT-4 leukemia 32.6 µM | NCI-H226 lung > 100 µM | NCI-H23 lung > 100 µM | NCI-H322M lung > 100 µM | NCI-H460 lung > 100 µM | NCI-H522 lung > 100 µM | NCI/ADR-RES ovarian 75 µM | OVCAR-3 ovarian 38.7 µM | OVCAR-4 ovarian 44.4 µM | OVCAR-5 ovarian > 100 µM | OVCAR-8 ovarian 46.1 µM | PC-3 prostate > 100 µM | RPMI-8226 leukemia 78.7 µM | RXF 393 renal > 100 µM | SF-268 CNS 46.6 µM | SF-295 CNS > 100 µM | SK-MEL-2 melanoma > 100 µM | SK-MEL-28 melanoma > 100 µM | SK-MEL-5 melanoma > 100 µM | SK-OV-3 ovarian > 100 µM | SN12C renal 24.7 µM | SNB-19 CNS > 100 µM | SNB-75 CNS 89.3 µM | SR leukemia 37.4 µM | SW-620 colon 49.1 µM | T-47D breast > 100 µM | TK-10 renal > 100 µM | U251 CNS > 100 µM | UACC-257 melanoma > 100 µM | UACC-62 melanoma 52 µM | UO-31 renal > 100 µM
